Assay results from patent US8410165B2, “Aldehyde conjugated flavonoid preparations” (Agency for Science, Technology and Research, priority 2005, dated 2013).

## oligomeric epigallocatechin gallate [OEGCG]
Various solvents
  solubility in solvents: soluble in good solvents for EGCG, such as DMSO, N,N-dimethylformamide, acetone, ethanol, methanol, tetrahydrohuran and an alkaline aqueous solution except for water

## PEG-oligomeric epigallocatechin gallate [PEG-OEGCG]
  water solubility: not water soluble

## PEG-epigallocatechin gallate conjugate [PEG-EGCG]
  water solubility: water soluble
